# Source: PubChem BioAssay AID604 (The Scripps Research Institute Molecular Screening Center, 2007)
# The chains behind the UniProt entries cited, without tags or fusion partners.
# UniProt O75116, whole entry: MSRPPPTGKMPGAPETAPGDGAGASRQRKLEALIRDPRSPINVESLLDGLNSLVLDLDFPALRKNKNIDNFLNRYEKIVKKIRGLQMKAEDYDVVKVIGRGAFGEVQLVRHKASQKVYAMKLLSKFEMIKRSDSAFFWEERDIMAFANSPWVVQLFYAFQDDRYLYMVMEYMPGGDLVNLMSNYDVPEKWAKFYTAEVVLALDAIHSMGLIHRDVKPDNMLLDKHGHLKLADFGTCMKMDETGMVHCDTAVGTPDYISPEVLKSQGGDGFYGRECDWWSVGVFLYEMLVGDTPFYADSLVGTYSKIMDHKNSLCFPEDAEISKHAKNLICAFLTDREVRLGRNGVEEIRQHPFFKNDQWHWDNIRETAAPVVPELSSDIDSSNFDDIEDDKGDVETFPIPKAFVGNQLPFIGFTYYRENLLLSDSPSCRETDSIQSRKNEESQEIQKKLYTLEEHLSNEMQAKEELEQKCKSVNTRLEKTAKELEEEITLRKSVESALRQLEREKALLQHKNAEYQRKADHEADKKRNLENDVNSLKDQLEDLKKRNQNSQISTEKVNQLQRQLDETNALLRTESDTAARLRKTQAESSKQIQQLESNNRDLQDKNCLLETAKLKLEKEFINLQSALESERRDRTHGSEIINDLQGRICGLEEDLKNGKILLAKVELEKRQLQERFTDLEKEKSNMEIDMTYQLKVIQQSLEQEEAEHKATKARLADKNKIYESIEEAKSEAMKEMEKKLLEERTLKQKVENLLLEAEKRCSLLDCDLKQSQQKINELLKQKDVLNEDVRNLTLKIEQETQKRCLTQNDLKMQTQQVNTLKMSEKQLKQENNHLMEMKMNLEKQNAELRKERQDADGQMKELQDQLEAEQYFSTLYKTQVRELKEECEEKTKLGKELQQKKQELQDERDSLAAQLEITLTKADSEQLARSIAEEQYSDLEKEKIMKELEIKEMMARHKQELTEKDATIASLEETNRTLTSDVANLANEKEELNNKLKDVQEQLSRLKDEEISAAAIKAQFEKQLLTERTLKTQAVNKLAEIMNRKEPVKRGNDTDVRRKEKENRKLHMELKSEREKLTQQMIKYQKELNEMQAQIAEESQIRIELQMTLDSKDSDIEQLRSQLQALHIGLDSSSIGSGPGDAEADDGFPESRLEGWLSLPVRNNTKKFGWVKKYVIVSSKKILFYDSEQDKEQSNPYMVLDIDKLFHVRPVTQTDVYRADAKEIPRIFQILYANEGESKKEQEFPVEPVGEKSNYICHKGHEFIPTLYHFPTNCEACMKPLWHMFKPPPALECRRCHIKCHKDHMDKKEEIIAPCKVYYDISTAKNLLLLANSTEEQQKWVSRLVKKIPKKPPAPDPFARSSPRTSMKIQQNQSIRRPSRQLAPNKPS
# The entries are a selection whose mix differs from that of the whole data set. Activity calls are given as the source filed them.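 How the source made its calls: active means inhibition above the screen-wide mean inhibition plus 3 SD (cut at about 18% in these data); inactive means the rest.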
# Molecular target: Rho-associated protein kinase 2 (Homo sapiens) (UniProt O75116)
# Assay: inhibitors of human ROCK2 kinase, primary screen, biochemical, high-throughput, luminescence (AID 604);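 further: plate controls were DMSO wells for no effect and Y-27632 control wells after no-enzyme background subtraction for full effect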
# Settings: purified ROCK2, Kinase-Glo ATP depletion luminescence; at 6 µM; hits give high values
row,SMILES,inhibition
1,Cc1ccc(C)c(NP(C)(=O)Oc2ccccc2)c1 (stereo unspecified),inactive: 8.3%
2,Cc1nc2ccc3ccccc3c2s1.O=[N+]([O-])c1cc([N+](=O)[O-])c(O)c([N+](=O)[O-])c1,inactive: 5.7%
3,CCOP(C)(=S)SCC(=O)NC(C)C(=O)O (stereo unspecified),inactive: 0.2%
4,CP(=S)(Nn1cnnc1)Oc1ccccc1 (stereo unspecified),inactive: 7.2%
5,Cc1ccc(NP(C)(=O)Oc2ccccc2)c(C)c1 (stereo unspecified),inactive: -1.5%
6,COc1ccccc1OP(C)(=O)Nc1ccc(C)cc1 (stereo unspecified),inactive: 6.6%
7,CP(=O)(Nc1ccccn1)Oc1ccccc1 (stereo unspecified),inactive: 5.7%
8,COc1ccccc1OP(C)(=O)Nc1ccc(C)c(C)c1 (stereo unspecified),inactive: 4.9%
9,Cc1nc2ccc3ccccc3c2o1.O=[N+]([O-])c1cc([N+](=O)[O-])c(O)c([N+](=O)[O-])c1,inactive: 0.3%
10,CCN(CC)CC(O)COC(=O)C(O)(c1ccccc1)C1CCCCC1 (stereo unspecified),inactive: 11.2%
11,COc1ccccc1OP(C)(=O)Nc1c(C)n(C)n(-c2ccccc2)c1=O (stereo unspecified),inactive: 3.1%
12,CP(=O)(Oc1ccccc1)N1CCOC1=O (stereo unspecified),inactive: 5.7%
13,CCOP(C)(=S)SCC(=O)NC(C)(CC)C(=O)O (stereo unspecified),inactive: 1.6%
14,Cc1ccccc1NP(C)(=O)Nc1ccccc1C,inactive: 3.5%
15,CN(C)CCOC(=O)C(O)(c1ccccc1)C1CCCCC1 (stereo unspecified),inactive: 0.9%
16,CP(=O)(Nc1ccccc1F)Oc1ccccc1 (stereo unspecified),inactive: 3.5%
